Reference: PubChem BioAssay AID1458 (National Center for Advancing Translational Sciences (NCATS), 2008)
The entries are a selection whose mix differs from that of the whole data set. Some of these compounds have results that are not shown, active ones among them. Results filed as inconclusive are left out. Active and inactive are the calls of the source. The call rests on the fitted dose curve; in most records, active means well fitted activation curve with a large enough effect; inconclusive means small, poorly fitted or top-dose-only effect; inactive means no such curve, though single readings can be large or run the other way.

assay: qHTS Assay for Enhancers of SMN2 Splice Variant Expression; details: HEK293 SMN2-luciferase splicing reporter, luminescence, 30-36 h; at 46.1 µM (top of the series) unless noted; further: % of control where 0% means no effect; nearly all actives have a fitted effect of over 55% in size

Structure (SMILES) | activity change, positive = activation
CC(C)N1C(=O)CC2(CCN(CCOC(=O)C(O)(c3ccccc3)c3ccccc3)CC2)C1=O | inactive: -0.993%
CCN1CCCC(OC(=O)C2(O)c3ccccc3C=Cc3ccccc32)C1 (stereo not given) | inactive: -1.67%
Cc1ccccc1C(=O)NCC1(N2CCCCC2)CCCCC1 | inactive: 5.69%
CN(C)C1CCCC1OC(=O)C(O)(c1ccccc1)c1ccccc1 (stereo not given) | inactive: -11.3%
COc1cccc(C(=O)NCC2(N3CCCCC3)CCCCC2)c1 | inactive: 8.9%
CN(C)c1cccc(C(=O)NCC2(N(C)C)CCCCC2)c1 | inactive: 15.1%
CN1CCC[C@H](OC(=O)[C@](O)(c2ccccc2)C2CCCC2)C1 | inactive: -0.84% [at 9.22 µM]
O=C(OC1CN2CCC1CC2)C(CO)(c1ccccc1)c1ccccc1 (stereo not given) | inactive: -5.62%
CN1CC[C@H](OC(=O)[C@](O)(c2ccccc2)C2CCCC2)C1 | inactive: -13.3% [at 9.22 µM]
C=C(C)C#C[C@@](O)(C(=O)OC1CCN(C)CC1)c1ccccc1 | inactive: -16.6% [at 9.22 µM]
